Laboratory results reported in PubChem BioAssay (NCI).
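Five concentrations, 48 hours, 96-well plates. GI50 = concentration required for 50% inhibition of growth. The concentration for full growth arrest is given as TGI.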

Legend:
Assay in all cases: NCI tumour cell line growth inhibition, 48 h
786-0 renal = system: 786-0 renal
A549 NSCLC = system: A549 NSCLC
ACHN renal = system: ACHN renal
BT-549 breast = system: BT-549 breast
CAKI-1 renal = system: CAKI-1 renal
CCRF-CEM leukemia = system: CCRF-CEM leukemia
COLO 205 colon = system: COLO 205 colon
DU-145 prostate = system: DU-145 prostate
EKVX NSCLC = system: EKVX NSCLC
HCC-2998 colon = system: HCC-2998 colon
HCT-116 colon = system: HCT-116 colon
HCT-15 colon = system: HCT-15 colon
HL-60(TB) leukemia = system: HL-60(TB) leukemia
HOP-62 NSCLC = system: HOP-62 NSCLC
HS 578T breast = system: HS 578T breast
HT29 colon = system: HT29 colon
IGROV1 ovarian = system: IGROV1 ovarian
K-562 leukemia = system: K-562 leukemia
KM12 colon = system: KM12 colon
LOX IMVI melanoma = system: LOX IMVI melanoma
M14 melanoma = system: M14 melanoma
MALME-3M melanoma = system: MALME-3M melanoma
MCF7 breast = system: MCF7 breast
MDA-MB-231 breast = system: MDA-MB-231 breast
MDA-MB-435 = system: MDA-MB-435
MDA-N = system: MDA-N
MOLT-4 leukemia = system: MOLT-4 leukemia
NCI-H23 lung = system: NCI-H23 lung
NCI-H322M lung = system: NCI-H322M lung
NCI-H460 lung = system: NCI-H460 lung
NCI-H522 lung = system: NCI-H522 lung
NCI/ADR-RES ovarian = system: NCI/ADR-RES ovarian
OVCAR-3 ovarian = system: OVCAR-3 ovarian
OVCAR-4 ovarian = system: OVCAR-4 ovarian
OVCAR-5 ovarian = system: OVCAR-5 ovarian
OVCAR-8 ovarian = system: OVCAR-8 ovarian
PC-3 prostate = system: PC-3 prostate
RXF 393 renal = system: RXF 393 renal
SF-268 CNS = system: SF-268 CNS
SF-295 CNS = system: SF-295 CNS
SF-539 CNS = system: SF-539 CNS
SK-MEL-2 melanoma = system: SK-MEL-2 melanoma
SK-MEL-28 melanoma = system: SK-MEL-28 melanoma
SK-MEL-5 melanoma = system: SK-MEL-5 melanoma
SK-OV-3 ovarian = system: SK-OV-3 ovarian
SN12C renal = system: SN12C renal
SNB-19 CNS = system: SNB-19 CNS
SNB-75 CNS = system: SNB-75 CNS
SR leukemia = system: SR leukemia
SW-620 colon = system: SW-620 colon
T-47D breast = system: T-47D breast
TK-10 renal = system: TK-10 renal
U251 CNS = system: U251 CNS
UACC-257 melanoma = system: UACC-257 melanoma
UACC-62 melanoma = system: UACC-62 melanoma
UO-31 renal = system: UO-31 renal

Work on CP1(=O)N(Cc2ccccc2)[C@@H]2CCCC[C@H]2N1Cc1ccccc1 yielded a GI50 (786-0 renal) of 44.4 µM, a TGI (786-0 renal) greater than 100 µM and a GI50 (A549 NSCLC) of 40.2 µM. It also gave a TGI (A549 NSCLC) greater than 100 µM, a GI50 (ACHN renal) of 55.9 µM and a TGI (ACHN renal) greater than 100 µM. It also gave a GI50 (BT-549 breast) of 57.6 µM, a TGI (BT-549 breast) greater than 100 µM and a GI50 (CAKI-1 renal) of 43.9 µM. For the same compound, the TGI (CAKI-1 renal) was greater than 100 µM, the GI50 (CCRF-CEM leukemia) was 40.7 µM and the TGI (CCRF-CEM leukemia) was greater than 100 µM. The GI50 (COLO 205 colon) was 15.5 µM, the TGI (COLO 205 colon) was 35.7 µM and the GI50 (DU-145 prostate) was 44.3 µM. It also gave a TGI (DU-145 prostate) greater than 100 µM, a GI50 (EKVX NSCLC) of 42.7 µM and a TGI (EKVX NSCLC) greater than 100 µM. The GI50 (HCC-2998 colon) was 22.3 µM, the TGI (HCC-2998 colon) was 60.6 µM and the GI50 (HCT-116 colon) was 26.3 µM. For the same compound, the TGI (HCT-116 colon) was greater than 100 µM, the GI50 (HCT-15 colon) was 37.5 µM and the TGI (HCT-15 colon) was greater than 100 µM. The GI50 (HL-60(TB) leukemia) was 23.4 µM, the TGI (HL-60(TB) leukemia) was 51.7 µM and the GI50 (HOP-62 NSCLC) was 98.3 µM. It also gave a TGI (HOP-62 NSCLC) greater than 100 µM, a GI50 (HS 578T breast) of 32 µM and a TGI (HS 578T breast) greater than 100 µM. It also gave a GI50 (HT29 colon) of 25.4 µM, a TGI (HT29 colon) greater than 100 µM and a GI50 (IGROV1 ovarian) of 27.2 µM. For the same compound, the TGI (IGROV1 ovarian) was 89 µM, the GI50 (K-562 leukemia) was 37.4 µM and the TGI (K-562 leukemia) was greater than 100 µM. The GI50 (KM12 colon) was 31 µM, the TGI (KM12 colon) was greater than 100 µM and the GI50 (LOX IMVI melanoma) was 33.9 µM. It also gave a TGI (LOX IMVI melanoma) greater than 100 µM, a GI50 (M14 melanoma) of 24 µM and a TGI (M14 melanoma) of 78.5 µM. For the same compound, the GI50 (MALME-3M melanoma) was 32.8 µM, the TGI (MALME-3M melanoma) was greater than 100 µM and the GI50 (MCF7 breast) was 39.7 µM. The TGI (MCF7 breast) was greater than 100 µM, the GI50 (MDA-MB-231 breast) was 28.8 µM and the TGI (MDA-MB-231 breast) was greater than 100 µM. The GI50 (MDA-MB-435) was 30.6 µM, the TGI (MDA-MB-435) was greater than 100 µM and the GI50 (MDA-N) was 37.8 µM. The TGI (MDA-N) was greater than 100 µM, the GI50 (MOLT-4 leukemia) was 22.5 µM and the TGI (MOLT-4 leukemia) was 62.5 µM. For the same compound, the GI50 (NCI-H23 lung) was 34.2 µM, the TGI (NCI-H23 lung) was greater than 100 µM and the GI50 (NCI-H322M lung) was 70.3 µM. For the same compound, the TGI (NCI-H322M lung) was greater than 100 µM, the GI50 (NCI-H460 lung) was 49.9 µM and the TGI (NCI-H460 lung) was greater than 100 µM. The GI50 (NCI-H522 lung) was 20.2 µM, the TGI (NCI-H522 lung) was 57.4 µM and the GI50 (NCI/ADR-RES ovarian) was 30 µM. The TGI (NCI/ADR-RES ovarian) was greater than 100 µM, the GI50 (OVCAR-3 ovarian) was 31.9 µM and the TGI (OVCAR-3 ovarian) was greater than 100 µM. For the same compound, the GI50 (OVCAR-4 ovarian) was 23.8 µM, the TGI (OVCAR-4 ovarian) was 98.4 µM and the GI50 (OVCAR-5 ovarian) was greater than 100 µM. The TGI (OVCAR-5 ovarian) was greater than 100 µM, the GI50 (OVCAR-8 ovarian) was 28.4 µM and the TGI (OVCAR-8 ovarian) was 84.4 µM. For the same compound, the GI50 (PC-3 prostate) was 32.4 µM, the TGI (PC-3 prostate) was greater than 100 µM and the GI50 (RXF 393 renal) was 25.9 µM. For the same compound, the TGI (RXF 393 renal) was greater than 100 µM, the GI50 (SF-268 CNS) was 40.6 µM and the TGI (SF-268 CNS) was greater than 100 µM. For the same compound, the GI50 (SF-295 CNS) was 38.2 µM, the TGI (SF-295 CNS) was greater than 100 µM and the GI50 (SF-539 CNS) was 23.7 µM. The TGI (SF-539 CNS) was 84.1 µM, the GI50 (SK-MEL-2 melanoma) was 77.1 µM and the TGI (SK-MEL-2 melanoma) was greater than 100 µM. For the same compound, the GI50 (SK-MEL-28 melanoma) was greater than 100 µM, the TGI (SK-MEL-28 melanoma) was greater than 100 µM and the GI50 (SK-MEL-5 melanoma) was 20.3 µM. It also gave a TGI (SK-MEL-5 melanoma) of 45 µM, a GI50 (SK-OV-3 ovarian) of 40.6 µM and a TGI (SK-OV-3 ovarian) greater than 100 µM. It also gave a GI50 (SN12C renal) of 31 µM, a TGI (SN12C renal) greater than 100 µM and a GI50 (SNB-19 CNS) of 64.1 µM. It also gave a TGI (SNB-19 CNS) greater than 100 µM, a GI50 (SNB-75 CNS) of 15.9 µM and a TGI (SNB-75 CNS) of 66.1 µM. For the same compound, the GI50 (SR leukemia) was 24.1 µM, the TGI (SR leukemia) was 57.8 µM and the GI50 (SW-620 colon) was 41.3 µM. The TGI (SW-620 colon) was greater than 100 µM, the GI50 (T-47D breast) was 20.4 µM and the TGI (T-47D breast) was 64.1 µM. For the same compound, the GI50 (TK-10 renal) was 38.2 µM, the TGI (TK-10 renal) was greater than 100 µM and the GI50 (U251 CNS) was 39 µM. For the same compound, the TGI (U251 CNS) was greater than 100 µM, the GI50 (UACC-257 melanoma) was 29.7 µM and the TGI (UACC-257 melanoma) was 99.6 µM. It also gave a GI50 (UACC-62 melanoma) of 45.6 µM, a TGI (UACC-62 melanoma) greater than 100 µM and a GI50 (UO-31 renal) of 23.1 µM. It also gave a TGI (UO-31 renal) greater than 100 µM.
